Experimental data published in PMC3408453, “A Foldamer-Dendrimer Conjugate Neutralizes Synaptotoxic β-Amyloid Oligomers” (PLoS ONE, 2012).

Experiments:
oligomeric Aβ = target: T1, oligomeric Aβ (Homo sapiens, UniProt P05067); experiment: Capture ELISA, biotinyl ligands on streptavidin plate, oligomeric Aβ detected by BAM10; type: binding
T1 construct: a depsipeptide derivative of Aβ(1–42) was utilized; made in house; host or cells: chemical peptide synthesis (no expression host)
Experimental: Biotin-labeled 1 was prepared by elongating the foldamer segment with a biotinyl-aminohexanoyl-Gly-Gly moiety and these derivatives were coupled to G0-PAMAM which furnished biotin-labeled 7. Biotinyl-8 was also prepared. All the labeled ligands were attached to the streptavidin functionalized microplates with a coverage of 5 pmoles per well. […] Because of the potential sterical shielding of the recognition segments over the surface, the ITC affinities cannot be directly compared to the ELISA results.
(§1) Figure 6 ELISA results. (A) Effects of multivalency on the affinities. Normalized absorbances recorded in capture ELISA experiments, where the biotinyl-7 (circles), -8 (triangles) or -1 (squares) are attached to the streptavidin functionalized plate and the increasing surface concentration of Aβ is observed through the BAM10 antibody.
An indirect ELISA experiment was conducted on 96-well streptavidin-coated clear plates (Pierce, Cat.No. 15500, Rockford, IL, US). Biotinyl-compounds bound to streptavidin by incubating 1 µg substance per well for 2 h at ambient temperature. Aβ(1–42) was dissolved in PBS to 100 µM and incubated for 24 h at 37°C. Serial dilutions of the incubated peptide were prepared, and supplemented with Tween (0.05% v/v of the final volume) and BSA (1% w/v of the final volume) prior to use. Compounds were incubated with Aβ oligomers for 1 h at ambient temperature. Bound Aβ was detected by monoclonal anti-Aβ AB clone Bam-10 (Sigma-Aldrich) applied in 1∶10000 dilution for 1 h followed by an incubation with anti-mouse IgG-HRP (DakoCytomation, Glostrup Denmark). Finally, 100 µL tetramethylbenzidine (TMB) solution (Cell Signaling Tecnology Inc., Danvers, USA) was introduced into the wells, and the change in the absorbance at 370 nm was monitored constantly, without the addition of stop solution, on a 96-well plate reader (NOVOstar OPTIMA, BMG Labtech, Offenburg, Germany) equipped with a xenon lamp, fiberglass optics and a shaking microplate carrier. Abs370 values were read near complete saturation of the signal intensity, which was observed after 40 min. For the quantitative analysis of the results, nonlinear regressions were carried out and the IC50 values were optimized with fixed number of blocked ligands per Aβ peptide as determined by ITC [80]. […] Concerning the steric shielding exerted by the solid support, the apparent binding parameters estimated from ELISA are in good accordance.

fibrillar Aβ = target: T2, fibrillar Aβ (Homo sapiens, UniProt P05067); experiment: Capture ELISA, biotinyl ligand on streptavidin plate, fibrillar Aβ; type: binding
T2 construct: Aβ(1–42) was dissolved in PBS to 100 µM and incubated for 24 h at 37°C; made in house; host or cells: chemical peptide synthesis (no expression host)
Experimental: as §1
This phenomenon was tested also in a capture ELISA. Biotin-labeled 4 and 5 were prepared as described and ligation to G0-PAMAM yielded biotin-labeled 9 and 10, respectively. ELISA measurements confirmed the ITC findings (Figure 6B). […]
An indirect ELISA experiment was conducted on 96-well streptavidin-coated clear plates (Pierce, Cat.No. 15500, Rockford, IL, US). […] Bound Aβ was detected by monoclonal anti-Aβ AB clone Bam-10 (Sigma-Aldrich) applied in 1∶10000 dilution for 1 h followed by an incubation with anti-mouse IgG-HRP (DakoCytomation, Glostrup Denmark). Finally, 100 µL tetramethylbenzidine (TMB) solution (Cell Signaling Tecnology Inc., Danvers, USA) was introduced into the wells, and the change in the absorbance at 370 nm was monitored constantly, without the addition of stop solution, on a 96-well plate reader (NOVOstar OPTIMA, BMG Labtech, Offenburg, Germany) equipped with a xenon lamp, fiberglass optics and a shaking microplate carrier. Abs370 values were read near complete saturation of the signal intensity, which was observed after 40 min. […]

[1] = biotinyl ligand on streptavidin plate, fitted with fixed N from ITC, read-out: ELISA IC50, oligomeric Aβ
[2] = read-out: ELISA IC50, oligomeric Aβ, biotinyl ligand on streptavidin plate, fitted with fixed N from ITC

IC50 (oligomeric Aβ; [1]): 12 µM
Structure (SMILES): N=C(N)NCCC[C@@H](CC(=O)N[C@H]1CCCC[C@@H]1C(=O)N[C@H]1CCCC[C@@H]1C(=O)N[C@@H](CC(=O)O)CC(=O)N[C@H]1CCCC[C@@H]1C(N)=O)NC(=O)[C@H]1CCCC[C@@H]1N [Compound 1]

Structure (SMILES): N=C(N)NCCC[C@@H](CC(=O)N[C@H]1CCCC[C@@H]1C(=O)N[C@H]1CCCC[C@@H]1C(=O)N[C@@H](CC(=O)O)CC(=O)N[C@H]1CCCC[C@@H]1C(=O)NCC(=O)NCC(=O)N[C@@H](CSC1CC(=O)N(CCC(=O)NCCNC(=O)CCN(CCC(=O)NCCNC(=O)CCN2C(=O)CC(SC[C@H](NC(=O)CNC(=O)CNC(=O)[C@H]3CCCC[C@@H]3NC(=O)C[C@H](CC(=O)O)NC(=O)[C@H]3CCCC[C@@H]3NC(=O)[C@H]3CCCC[C@@H]3NC(=O)C[C@H](CCCNC(=N)N)NC(=O)[C@H]3CCCC[C@@H]3N)C(N)=O)C2=O)CCN(CCC(=O)NCCNC(=O)CCN2C(=O)CC(SC[C@H](NC(=O)CNC(=O)CNC(=O)[C@H]3CCCC[C@@H]3NC(=O)C[C@H](CC(=O)O)NC(=O)[C@H]3CCCC[C@@H]3NC(=O)[C@H]3CCCC[C@@H]3NC(=O)C[C@H](CCCNC(=N)N)NC(=O)[C@H]3CCCC[C@@H]3N)C(N)=O)C2=O)CCC(=O)NCCNC(=O)CCN2C(=O)CC(SC[C@H](NC(=O)CNC(=O)CNC(=O)[C@H]3CCCC[C@@H]3NC(=O)C[C@H](CC(=O)O)NC(=O)[C@H]3CCCC[C@@H]3NC(=O)[C@H]3CCCC[C@@H]3NC(=O)C[C@H](CCCNC(=N)N)NC(=O)[C@H]3CCCC[C@@H]3N)C(N)=O)C2=O)C1=O)C(N)=O)NC(=O)[C@H]1CCCC[C@@H]1N (some centres unmarked) [Compound 7]
IC50 (oligomeric Aβ; [2]): 0.126 µM | IC50 (fibrillar Aβ): 0.886 µM

Structure (SMILES): N=C(N)NCCC[C@@H](CC(=O)N[C@H]1CCCC[C@@H]1C(=O)N[C@H]1CCCC[C@@H]1C(=O)N[C@@H](CC(=O)O)CC(=O)N[C@H]1CCCC[C@@H]1C(=O)NCC(=O)NCC(=O)N[C@@H](CSC1CC(=O)N(CCCCN2C(=O)CC(SC[C@H](NC(=O)CNC(=O)CNC(=O)[C@H]3CCCC[C@@H]3NC(=O)C[C@H](CC(=O)O)NC(=O)[C@H]3CCCC[C@@H]3NC(=O)[C@H]3CCCC[C@@H]3NC(=O)C[C@H](CCCNC(=N)N)NC(=O)[C@H]3CCCC[C@@H]3N)C(N)=O)C2=O)C1=O)C(N)=O)NC(=O)[C@H]1CCCC[C@@H]1N (some centres unmarked) [Compound 8]
IC50 (oligomeric Aβ; [1]): 0.933 µM

Structure (SMILES): NC(=O)[C@H](CSC1CC(=O)N(CCC(=O)NCCNC(=O)CCN(CCC(=O)NCCNC(=O)CCN2C(=O)CC(SC[C@H](NC(=O)CNC(=O)CNC(=O)[C@H]3CCCC[C@@H]3NC(=O)C[C@H](CO)NC(=O)[C@H]3CCCC[C@@H]3NC(=O)[C@H]3CCCC[C@@H]3NC(=O)C[C@H](CO)NC(=O)[C@H]3CCCC[C@@H]3N)C(N)=O)C2=O)CCN(CCC(=O)NCCNC(=O)CCN2C(=O)CC(SC[C@H](NC(=O)CNC(=O)CNC(=O)[C@H]3CCCC[C@@H]3NC(=O)C[C@H](CO)NC(=O)[C@H]3CCCC[C@@H]3NC(=O)[C@H]3CCCC[C@@H]3NC(=O)C[C@H](CO)NC(=O)[C@H]3CCCC[C@@H]3N)C(N)=O)C2=O)CCC(=O)NCCNC(=O)CCN2C(=O)CC(SC[C@H](NC(=O)CNC(=O)CNC(=O)[C@H]3CCCC[C@@H]3NC(=O)C[C@H](CO)NC(=O)[C@H]3CCCC[C@@H]3NC(=O)[C@H]3CCCC[C@@H]3NC(=O)C[C@H](CO)NC(=O)[C@H]3CCCC[C@@H]3N)C(N)=O)C2=O)C1=O)NC(=O)CNC(=O)CNC(=O)[C@H]1CCCC[C@@H]1NC(=O)C[C@H](CO)NC(=O)[C@H]1CCCC[C@@H]1NC(=O)[C@H]1CCCC[C@@H]1NC(=O)C[C@H](CO)NC(=O)[C@H]1CCCC[C@@H]1N (some centres unmarked) [Compound 9]
IC50 (oligomeric Aβ; [2]): 4.4 µM

Structure (SMILES): N=C(N)NCCC[C@@H](CC(=O)N[C@H]1CCCC[C@@H]1C(=O)N[C@@H](CC(=O)O)CC(=O)N[C@H]1CCCC[C@@H]1C(=O)N[C@H]1CCCC[C@@H]1C(=O)NCC(=O)NCC(=O)N[C@@H](CSC1CC(=O)N(CCC(=O)NCCNC(=O)CCN(CCC(=O)NCCNC(=O)CCN2C(=O)CC(SC[C@H](NC(=O)CNC(=O)CNC(=O)[C@H]3CCCC[C@@H]3NC(=O)[C@H]3CCCC[C@@H]3NC(=O)C[C@H](CC(=O)O)NC(=O)[C@H]3CCCC[C@@H]3NC(=O)C[C@H](CCCNC(=N)N)NC(=O)[C@H]3CCCC[C@@H]3N)C(N)=O)C2=O)CCN(CCC(=O)NCCNC(=O)CCN2C(=O)CC(SC[C@H](NC(=O)CNC(=O)CNC(=O)[C@H]3CCCC[C@@H]3NC(=O)[C@H]3CCCC[C@@H]3NC(=O)C[C@H](CC(=O)O)NC(=O)[C@H]3CCCC[C@@H]3NC(=O)C[C@H](CCCNC(=N)N)NC(=O)[C@H]3CCCC[C@@H]3N)C(N)=O)C2=O)CCC(=O)NCCNC(=O)CCN2C(=O)CC(SC[C@H](NC(=O)CNC(=O)CNC(=O)[C@H]3CCCC[C@@H]3NC(=O)[C@H]3CCCC[C@@H]3NC(=O)C[C@H](CC(=O)O)NC(=O)[C@H]3CCCC[C@@H]3NC(=O)C[C@H](CCCNC(=N)N)NC(=O)[C@H]3CCCC[C@@H]3N)C(N)=O)C2=O)C1=O)C(N)=O)NC(=O)[C@H]1CCCC[C@@H]1N (some centres unmarked) [Compound 10]
IC50 (oligomeric Aβ; [2]): 18.5 µM

Structure (SMILES): NC(=O)[C@H](CSC1CC(=O)N(CCC(=O)NCCNC(=O)CCN(CCC(=O)NCCNC(=O)CCN2C(=O)CC(SC[C@H](NC(=O)CNC(=O)CNC(=O)[C@H]3CCCC[C@@H]3NC(=O)C[C@H](CO)NC(=O)[C@H]3CCCC[C@@H]3NC(=O)[C@H]3CCCC[C@@H]3NC(=O)C[C@H](CO)NC(=O)[C@H]3CCCC[C@@H]3NC(=O)CNC(=O)CNC(=O)CCCCCNC(=O)CCCC[C@@H]3SC[C@@H]4NC(=O)N[C@@H]43)C(N)=O)C2=O)CCN(CCC(=O)NCCNC(=O)CCN2C(=O)CC(SC[C@H](NC(=O)CNC(=O)CNC(=O)[C@H]3CCCC[C@@H]3NC(=O)C[C@H](CO)NC(=O)[C@H]3CCCC[C@@H]3NC(=O)[C@H]3CCCC[C@@H]3NC(=O)C[C@H](CO)NC(=O)[C@H]3CCCC[C@@H]3NC(=O)CNC(=O)CNC(=O)CCCCCNC(=O)CCCC[C@@H]3SC[C@@H]4NC(=O)N[C@@H]43)C(N)=O)C2=O)CCC(=O)NCCNC(=O)CCN2C(=O)CC(SC[C@H](NC(=O)CNC(=O)CNC(=O)[C@H]3CCCC[C@@H]3NC(=O)C[C@H](CO)NC(=O)[C@H]3CCCC[C@@H]3NC(=O)[C@H]3CCCC[C@@H]3NC(=O)C[C@H](CO)NC(=O)[C@H]3CCCC[C@@H]3NC(=O)CNC(=O)CNC(=O)CCCCCNC(=O)CCCC[C@@H]3SC[C@@H]4NC(=O)N[C@@H]43)C(N)=O)C2=O)C1=O)NC(=O)CNC(=O)CNC(=O)[C@H]1CCCC[C@@H]1NC(=O)C[C@H](CO)NC(=O)[C@H]1CCCC[C@@H]1NC(=O)[C@H]1CCCC[C@@H]1NC(=O)C[C@H](CO)NC(=O)[C@H]1CCCC[C@@H]1NC(=O)CNC(=O)CNC(=O)CCCCCNC(=O)CCCC[C@@H]1SC[C@@H]2NC(=O)N[C@@H]21 (some centres unmarked) [biotinyl-9]
IC50 (oligomeric Aβ): 4.4 µM

Structure (SMILES): N=C(N)NCCC[C@@H](CC(=O)N[C@H]1CCCC[C@@H]1C(=O)N[C@@H](CC(=O)O)CC(=O)N[C@H]1CCCC[C@@H]1C(=O)N[C@H]1CCCC[C@@H]1C(=O)NCC(=O)NCC(=O)N[C@@H](CSC1CC(=O)N(CCC(=O)NCCNC(=O)CCN(CCC(=O)NCCNC(=O)CCN2C(=O)CC(SC[C@H](NC(=O)CNC(=O)CNC(=O)[C@H]3CCCC[C@@H]3NC(=O)[C@H]3CCCC[C@@H]3NC(=O)C[C@H](CC(=O)O)NC(=O)[C@H]3CCCC[C@@H]3NC(=O)C[C@H](CCCNC(=N)N)NC(=O)[C@H]3CCCC[C@@H]3NC(=O)CNC(=O)CNC(=O)CCCCCNC(=O)CCCC[C@@H]3SC[C@@H]4NC(=O)N[C@@H]43)C(N)=O)C2=O)CCN(CCC(=O)NCCNC(=O)CCN2C(=O)CC(SC[C@H](NC(=O)CNC(=O)CNC(=O)[C@H]3CCCC[C@@H]3NC(=O)[C@H]3CCCC[C@@H]3NC(=O)C[C@H](CC(=O)O)NC(=O)[C@H]3CCCC[C@@H]3NC(=O)C[C@H](CCCNC(=N)N)NC(=O)[C@H]3CCCC[C@@H]3NC(=O)CNC(=O)CNC(=O)CCCCCNC(=O)CCCC[C@@H]3SC[C@@H]4NC(=O)N[C@@H]43)C(N)=O)C2=O)CCC(=O)NCCNC(=O)CCN2C(=O)CC(SC[C@H](NC(=O)CNC(=O)CNC(=O)[C@H]3CCCC[C@@H]3NC(=O)[C@H]3CCCC[C@@H]3NC(=O)C[C@H](CC(=O)O)NC(=O)[C@H]3CCCC[C@@H]3NC(=O)C[C@H](CCCNC(=N)N)NC(=O)[C@H]3CCCC[C@@H]3NC(=O)CNC(=O)CNC(=O)CCCCCNC(=O)CCCC[C@@H]3SC[C@@H]4NC(=O)N[C@@H]43)C(N)=O)C2=O)C1=O)C(N)=O)NC(=O)[C@H]1CCCC[C@@H]1NC(=O)CNC(=O)CNC(=O)CCCCCNC(=O)CCCC[C@@H]1SC[C@@H]2NC(=O)N[C@@H]21 (some centres unmarked) [biotinyl-10]
IC50 (oligomeric Aβ): 18.5 µM

Where two headings read alike, the source gives them in different places. Each block holds one molecule with its values, some of them ahead of it.
